Experimental data from ChEMBL document CHEMBL1125712 (J Med Chem, 1991).
Calls of active or inactive are those of the source. The calls are words filed in the database; no cut-off is given here.

Each compound was assayed on aldose reductase (Rattus norvegicus) (assay: In vivo inhibition of sorbitol accumulation in the rat following 10 mg/kg p.o. administration.). Conditions: at 10 mg/kg.

Row | Compound | inhibition [%]
1 | CC(c1nc2cc(C(F)(F)F)ccc2s1)n1nc(CC(=O)O)c2ccccc2c1=O (configuration not stated) | 36
2 | O=C(O)Cc1nn(Cc2nc3ccccc3s2)c(=O)c2cc(Cl)c(Cl)cc12 | 63
3 | O=C(O)Cc1nn(Cc2nc3c(Cl)c(Cl)ccc3s2)c(=O)c2ccccc12 | 49

Results, then the compound that gave them:

Row | inhibition [%] | Compound
4 | 55 | O=C(O)Cc1nn(Cc2nc3ccc(Br)cc3s2)c(=O)c2ccccc12
5 | 87 | O=C(O)Cc1nn(Cc2nc3cc(Br)ccc3s2)c(=O)c2ccccc12

Each compound was assayed on aldose reductase (Rattus norvegicus) (assay: In vivo inhibition of sorbitol accumulation in the rat following 10 mg/kg p.o. administration; Not significant.). Conditions: at 10 mg/kg.

Row | inhibition | Compound
6 | inactive | O=C(O)Cc1nn(Cc2nc3ccccc3s2)c(=O)c2cc([N+](=O)[O-])ccc12
7 | inactive | O=C(O)Cc1nn(Cc2nc3ccccc3s2)c(=O)c2ccc(Br)cc12
